Test results published in US20030215462A1, “Use of UGT inhibitors to increase bioavailability” (priority 2001, published 2003).

Molecular target: T1, UGT enzymes of human liver microsomes (Homo sapiens, UniProt P16662)
T1 construct: residual metabolism (percentage of control), zidovudine glucuronidation; other: liver lot 062101; residual metabolism (percentage of control), zidovudine glucuronidation; residual metabolism (percentage of control)
T1 sequence (P16662 1-529): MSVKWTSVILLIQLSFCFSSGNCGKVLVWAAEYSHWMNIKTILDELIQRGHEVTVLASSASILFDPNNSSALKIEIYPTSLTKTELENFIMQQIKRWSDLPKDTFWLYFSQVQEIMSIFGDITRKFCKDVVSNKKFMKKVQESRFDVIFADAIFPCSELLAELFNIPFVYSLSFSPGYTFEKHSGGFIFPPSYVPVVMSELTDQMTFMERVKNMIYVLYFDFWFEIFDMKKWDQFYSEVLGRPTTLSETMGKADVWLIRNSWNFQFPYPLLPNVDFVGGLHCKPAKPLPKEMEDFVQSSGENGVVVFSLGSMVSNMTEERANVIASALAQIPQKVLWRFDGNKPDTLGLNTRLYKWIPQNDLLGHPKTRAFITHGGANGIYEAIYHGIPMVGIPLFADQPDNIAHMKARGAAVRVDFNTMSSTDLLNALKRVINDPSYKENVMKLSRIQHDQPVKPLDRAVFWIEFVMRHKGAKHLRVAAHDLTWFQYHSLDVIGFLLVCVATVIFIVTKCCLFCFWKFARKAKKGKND
Test: Inhibition of zidovudine glucuronidation in human liver microsomes
Type: biochemical
Conditions: liver lot 062101

residual metabolism (percentage of control), zidovudine glucuronidation (inhibitor 50 μM): 74 (1) % | residual metabolism (percentage of control), zidovudine glucuronidation (inhibitor 100 μM): 64 (2) % | residual metabolism (percentage of control), zidovudine glucuronidation (inhibitor 200 μM): 52 (2) % | residual metabolism (percentage of control), zidovudine glucuronidation (inhibitor 500 μM): 21 (1); 21 (1) %
SMILES: O=C(O)Cc1ccccc1Nc1c(Cl)cccc1Cl [Diclofenac, reference compound]
